Key:
cIAP1 = cIAP1 (Mus musculus, UniProt Q62210); conditions: 10 mg/kg i.v.; 12, 24, 48 h
XIAP = XIAP (Mus musculus, UniProt Q60989); conditions: 10 mg/kg i.v.; 12, 24, 48 h

Chains of the proteins cited; added tags and fusions are not shown.
UniProt Q62210, whole entry: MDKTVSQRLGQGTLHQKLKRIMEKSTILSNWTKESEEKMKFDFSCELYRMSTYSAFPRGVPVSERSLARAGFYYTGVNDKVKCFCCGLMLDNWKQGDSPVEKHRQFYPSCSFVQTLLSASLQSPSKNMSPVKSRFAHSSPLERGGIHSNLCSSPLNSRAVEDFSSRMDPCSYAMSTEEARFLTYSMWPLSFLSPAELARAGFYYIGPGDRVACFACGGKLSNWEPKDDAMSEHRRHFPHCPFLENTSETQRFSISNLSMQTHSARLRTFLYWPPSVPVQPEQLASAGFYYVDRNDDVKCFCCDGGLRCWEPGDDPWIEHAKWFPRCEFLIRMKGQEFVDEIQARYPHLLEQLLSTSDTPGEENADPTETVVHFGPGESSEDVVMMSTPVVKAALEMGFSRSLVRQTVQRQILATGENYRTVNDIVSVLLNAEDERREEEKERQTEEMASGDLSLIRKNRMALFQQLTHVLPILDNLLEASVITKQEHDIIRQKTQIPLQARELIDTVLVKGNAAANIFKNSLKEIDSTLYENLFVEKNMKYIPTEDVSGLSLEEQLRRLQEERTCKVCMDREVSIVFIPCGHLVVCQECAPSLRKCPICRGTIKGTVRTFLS
UniProt Q60989, whole entry: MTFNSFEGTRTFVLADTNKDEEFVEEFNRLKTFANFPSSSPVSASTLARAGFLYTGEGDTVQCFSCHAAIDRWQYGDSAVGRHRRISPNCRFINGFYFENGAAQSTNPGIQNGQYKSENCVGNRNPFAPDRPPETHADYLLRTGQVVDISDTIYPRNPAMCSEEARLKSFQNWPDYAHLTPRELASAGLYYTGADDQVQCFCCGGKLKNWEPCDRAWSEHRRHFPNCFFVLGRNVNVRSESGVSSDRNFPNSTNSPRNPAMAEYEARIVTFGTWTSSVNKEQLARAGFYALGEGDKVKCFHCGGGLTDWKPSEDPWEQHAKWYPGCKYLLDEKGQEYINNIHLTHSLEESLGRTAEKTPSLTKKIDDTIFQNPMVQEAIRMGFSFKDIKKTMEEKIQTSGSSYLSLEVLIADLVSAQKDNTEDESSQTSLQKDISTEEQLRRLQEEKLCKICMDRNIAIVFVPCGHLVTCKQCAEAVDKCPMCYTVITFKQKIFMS

CN[C@@H](C)C(=O)N[C@H]1CN(S(=O)(=O)c2cccc(S(=O)(=O)N3CC[C@H]4CC[C@@H](C(=O)NC(c5ccccc5)c5ccccc5)N4C(=O)[C@@H](NC(=O)[C@H](C)NC)C3)c2)CC[C@H]2CCC(C(=O)NC(c3ccccc3)c3ccccc3)N2C1=O (some centres unmarked) [Compound 1]
inhibitory effect on cIAP1 in liver tissues (Western blot) (cIAP1): inhibitory effect on cIAP1, but was significantly weaker than that on cIAP2 | inhibitory effect on XIAP in liver tissues (Western blot) (XIAP): no significant inhibitory effect
